Measurements: patent US20090099029

T1: Bovine, dephosphorylated, Myelin Basic Protein (MBP), P02687
T1 chain: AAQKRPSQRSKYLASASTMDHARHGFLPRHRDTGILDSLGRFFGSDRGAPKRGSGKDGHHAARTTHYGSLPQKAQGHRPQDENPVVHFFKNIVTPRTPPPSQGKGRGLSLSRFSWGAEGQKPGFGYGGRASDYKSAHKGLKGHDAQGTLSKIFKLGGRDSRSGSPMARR

B1: GSK3B (protein)
chain: MSGRPRTTSFAESCKPVQQPSAFGSMKVSRDKDGSKVTTVVATPGQGPDRPQEVSYTDTKVIGNGSFGVVYQAKLCDSGELVAIKKVLQDKRFKNRELQIMRKLDHCNIVRLRYFFYSSGEKKDEVYLNLVLDYVPETVYRVARHYSRAKQTLPVIYVKLYMYQLFRSLAYIHSFGICHRDIKPQNLLLDPDTAVLKLCDFGSAKQLVRGEPNVSYICSRYYRAPELIFGATDYTSSIDVWSAGCVLAELLLGQPIFPGDSGVDQLVEIIKVLGTPTREQIREMNPNYTEFKFPQIKAHPWTKVFRPRTPPEAIALCSRLLEYTPTARLTPLEACAHSFFDELRDPNVKLPNGRDTPALFNFTTQELSSNPPLATILIPPHARIQAAASTPTNATAASDANTGDRGQTNNAASASASNST
B2: LCK (protein)
chain: MGCGCSSHPEDDWMENIDVCENCHYPIVPLDGKGTLLIRNGSEVRDPLVTYEGSNPPASPLQDNLVIALHSYEPSHDGDLGFEKGEQLRILEQSGEWWKAQSLTTGQEGFIPFNFVAKANSLEPEPWFFKNLSRKDAERQLLAPGNTHGSFLIRESESTAGSFSLSVRDFDQNQGEVVKHYKIRNLDNGGFYISPRITFPGLHELVRHYTNASDGLCTRLSRPCQTQKPQKPWWEDEWEVPRETLKLVERLGAGQFGEVWMGYYNGHTKVAVKSLKQGSMSPDAFLAEANLMKQLQHQRLVRLYAVVTQEPIYIITEYMENGSLVDFLKTPSGIKLTINKLLDMAAQIAEGMAFIEERNYIHRDLRAANILVSDTLSCKIADFGLARLIEDNEYTAREGAKFPIKWTAPEAINYGTFTIKSDVWSFGILLTEIVTHGRIPYPGMTNPEVIQNLERGYRMVRPDNCPEELYQLMRLCWKERPEDRPTFDYLRSVLEDFFTATEGQYQPQP
B3: INSR (N-terminal His, PV3664) (protein)
chain: RKRQPDGPLGPLYASSNPEYLSASDVFPCSVYVPDEWEVSREKITLLRELGQGSFGMVYEGNARDIIKGEAETRVAVKTVNESASLRERIEFLNEASVMKGFTCHHVVRLLGVVSKGQPTLVVMELMAHGDLKSYLRSLRPEAENNPGRPPPTLQEMIQMAAEIADGMAYLNAKKFVHRDLAARNCMVAHDFTVKIGDFGMTRDIYETDYYRKGGKGLLPVRWMAPESLKDGVFTTSSDMWSFGVVLWEITSLAEQPYQGLSNEQVLKFVMDGGYLDQPDNCPERVTDLMRMCWQFNPKMRPTFLEIVNLLKDDLHPSFPEVSFFHSEENKAPESEELEMEFEDMENVPLDRSSHCQREEAGGRDGGSSLGFKRSYEEHIPYTHMNGGKKNGRILTLPRSNPS
B4: INSR (N-terminal GST, PV3781) (protein)
chain: B3 chain

Biological target: T1, Bovine, dephosphorylated, Myelin Basic …

Row | Protein | MBP Kinase Activity
1 | B1 | Negative
2 | B2 | Strong
3 | B3 | Strong
4 | B4 | Strong
